## Measured affinities in a library of Ab-14 heavy chain variants

The measurements come from Li et al. 2023 (doi:10.1038/s41467-023-39022-2) through the FLAb antibody collection.

Binding partner: SARS-CoV-2 spike HR2 peptide, sequence PDVDLGDISGINAS.

Parent: Ab-14, a human scFv built as VH, the linker GGGGSGGGGSGGGGS, VL. Only the CDRs of the heavy chain vary.
VH: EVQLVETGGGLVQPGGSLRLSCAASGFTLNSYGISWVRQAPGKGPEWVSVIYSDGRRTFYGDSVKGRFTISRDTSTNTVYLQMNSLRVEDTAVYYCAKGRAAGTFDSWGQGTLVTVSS
VL: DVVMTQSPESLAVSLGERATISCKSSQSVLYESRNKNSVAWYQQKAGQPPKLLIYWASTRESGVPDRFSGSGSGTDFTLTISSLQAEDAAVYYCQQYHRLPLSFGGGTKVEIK

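This is the validation round: designs drawn from the data on random variants, tested in the same kind of assay. Several design methods are mixed in this list. The scFvs were displayed on barcoded MATa yeast, the peptide on MATalpha yeast. Pairs that bind mate more often; barcode pairs of the diploids are counted by sequencing. A regression on co-assayed BCL2-family reference pairs converts the normalised counts of each replicate to an apparent Kd. Mating was done six times.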

The parent's heavy chain CDRs are GFTLNSYGIS, VIYSDGRRTFYGDSVK, GRAAGTFDS; each variant's own CDRs replace them letter for letter. The read-out is the apparent dissociation constant on a log10 scale (nM): the lower, the stronger. The mean shown is taken over the replicates in which the pair was detected. Where no diploid with the target was found in that replicate, the entry reads "ND": below detection, most likely a poor binder, though not proof of it.

| CDR-H1 | CDR-H2 | CDR-H3 | log10 Kd (nM) by replicate | mean, log10 nM |
|---|---|---|---|---|
| GFQLDEYGIS | VIYADGRRTFYADSVK | GENAGTFLM | ND 1.67 1.81 ND 2.40 1.24 | 1.78 |
| GFDLDEYGIS | VIYADGQRTAYSDSVK | GNQAGTFDL | -0.39 -0.66 -0.66 -0.41 -0.65 -0.18 | -0.49 |
| GFTLNSYGIS | VIYSDGRRTFYYDSVK | GRAAGTFDS | ND ND ND ND ND ND | ND |
| GFDLNEYGIS | VIYADGMRTFYADSVK | GQVAGTFSV | -0.76 -0.79 -0.87 -0.70 -0.56 -0.71 | -0.73 |
| GFTLNSYGIS | VIYSDGRKTFYADSVV | GRAAGIFLD | ND ND ND ND ND ND | ND |
| GFDLNEYGIS | VIYADGVRTFYSDSVK | GQSAGTFDA | 0.01 0.00 -0.17 -0.03 0.10 -0.05 | -0.03 |
| GFTLNSYGIS | VIYSDGLRTFYSDSVK | GRAGGTFDS | ND 1.98 1.92 2.12 1.96 1.47 | 1.89 |
| GFDLNSYGIS | VIYSDGRRTFYADSVK | GNTAGTFDS | 1.13 -0.26 -0.38 -0.41 -0.26 -0.40 | -0.09 |
| GFNLNEYGIS | VIYADGRRTFYADSVK | GGHAGTFDV | -0.58 -0.66 -0.62 -0.85 -0.77 -0.55 | -0.67 |
| GFVLNDYGIS | VIYSDGRRTFYIDHVK | GKAAGTFDS | ND ND ND ND ND ND | ND |
| GFTLNEYGIS | VIYSDGRRTFYDDSVK | GREAGTFDS | -0.20 -0.08 -0.16 -0.56 -0.54 0.00 | -0.26 |
| GFDLNEYGIS | VIYADGMRTVYADDVK | GQNAGTFDV | -0.49 -0.31 -0.59 -0.69 -0.45 -0.52 | -0.51 |
| GFSLNEYGIS | VIYADGRRTMYIDSVK | GRAAGTFDS | -0.17 -0.48 -0.60 -0.42 -0.62 -0.29 | -0.43 |
| GFELNSYGIS | VIYSDGRRTFYGDSVK | GREAGTFDA | 0.40 0.75 ND 0.84 0.64 0.58 | 0.64 |
| GFTLNEYGIS | VIYSDGLRTFYSDSVK | GQAAGTFDS | 0.01 0.48 0.04 0.32 1.65 0.40 | 0.48 |
| GFDLNEYGIS | VIYADGMRTVYADDVK | GNNAGTFDV | -0.30 0.23 -0.56 -0.86 -0.46 -0.78 | -0.45 |
| GFSLDNYGIS | VIYADGMRTAYANSVK | GEQDGFLTT | ND ND ND ND ND ND | ND |
| GFTLNSYGIS | VIYADGRRTFYGDSVK | GMAAGTFKS | 2.49 2.11 2.15 2.22 2.77 3.63 | 2.56 |
| GFDLNEYGIS | VIYADGMRTAYADSVK | GNEAGTFDI | 0.54 0.38 0.79 0.58 1.38 0.80 | 0.74 |
| GFSLDEYGIS | VIYADGRRTFYADSVK | GTLAGTFDA | ND -0.60 -0.99 -1.10 -1.48 -0.90 | -1.02 |
| GFKLNSYGIS | VIYADGRRTFYGDSVK | GRAAGTFDS | 0.26 -0.11 -0.22 -0.01 -0.20 0.01 | -0.05 |
| GFDLNEYGIS | VIYADGRRTAYSDSVK | GGNAGSFDS | -0.10 0.04 0.12 0.51 0.01 -0.16 | 0.07 |
| GKSLEEYGIS | VIYADGKRTMYANDVK | GHVGYIFMM | ND ND ND ND ND ND | ND |
| GFTLDEYGIS | VIYADGRRTFYSDSVK | GQTAGTFDV | -0.60 -0.72 -1.15 -0.59 -0.34 -0.61 | -0.67 |
| GFDLNEYGIS | VIYADGRQTFYTDNVK | GGNQGTAVL | ND ND ND ND ND ND | ND |
| GFQLDEVGIS | VIYADGMRTAYADSFK | GVVSTIIGI | ND ND ND ND ND ND | ND |
| GFSLNSFGIS | VIYSDGRRTFYGDSVK | GTAAGTFDS | 0.72 0.68 1.01 0.69 0.86 1.42 | 0.90 |
| GFDLNSYGIS | VIYSDGRRTFYADSVK | GRTAGTFDK | ND 0.64 ND ND ND ND | 0.64 |
| KFTLNSYGIS | VIYSDGRRTFYGDSVK | GRAPGTFDS | ND ND ND ND ND ND | ND |
| GFTLNEYGVS | VIYSDGRRTFYFDSVK | GRAAGTFDS | ND ND ND ND ND ND | ND |
| GFQLEEMGIS | VIYADGARTAYSSKVK | GGNGDKFDV | ND ND ND ND ND ND | ND |
| GFNLNSYGIS | VIYSDGRRTFYGDSVK | GRAAVGFDQ | ND ND ND ND ND ND | ND |
| GFSLNNYGIS | VIYSDGRRTFYVDSVK | GRTAGTFDS | 0.15 0.46 0.83 0.31 0.54 1.07 | 0.56 |
| GFTLNSYGIK | VIYSDGRRTFYGDSVK | GRAAGDFDS | ND ND ND ND ND ND | ND |
| GFTLNSYGIS | VIYHDGRRTFYSDSVK | GRAGGTFDS | ND ND ND 1.92 3.18 1.85 | 2.32 |
| GFTLNSYGIS | VIYSDGRRTFYGDSFK | GRAPGTFKA | ND ND ND ND ND ND | ND |
| GFNLNSYGIS | VIYSDGRRTFYGDSVK | GRAASTFDS | ND ND ND ND ND ND | ND |
| GFTLNEYGIS | VIYSDGSRTFYTDSVK | GRLAGTFDS | 0.98 0.84 0.42 0.48 1.07 0.96 | 0.79 |
| GFTLNSYGIS | VIYSDGRRTFYGDSVK | GQAAGAFCS | ND ND ND ND ND ND | ND |
| GFVLTSYGIS | VIYADGRRTFYGDSVK | GSQAGQFDS | ND ND ND ND ND ND | ND |
| GFDLNEYGIS | VIYADGMRTFYADSVK | GQIAGTFDV | -1.26 -0.46 -1.27 -1.04 -0.97 -1.75 | -1.12 |
| GFNLNSYGIS | VIYSDGRRTFYGDSVK | GRAAGLFSW | ND ND ND ND ND ND | ND |
| GFELNEYGIS | VIYSDGRRTFYKDSVK | GRAAGTFDS | 0.19 0.03 -0.17 -0.14 0.03 0.16 | 0.02 |
| GFDLNSYGIS | VIYSDGRRTFYVDSVK | GRAAGTFDS | 1.43 -0.05 -0.06 0.09 0.94 0.96; 1.32 0.61 0.03 1.24 0.91 0.21 | 0.64 |
| GFDLNEYGIS | VIYADGRRTFYTDSVK | GEVAGTFDE | -0.26 -0.95 -1.38 -1.13 -0.18 -0.21 | -0.69 |
| GFDLNEYGIS | VIYADGQRTAYADSVK | GGNAGTFDV | 0.49 0.33 -0.18 -0.12 -0.29 0.07 | 0.05 |
| GFDLNEYGIS | VIYADGLRTAYTDSVK | GNVAGTFDV | -0.08 -0.53 -0.16 -0.72 -0.83 0.04 | -0.38 |
| GFSLNMYGIS | VIYSDGRRTMYIDSVK | GRAAGTFDS | 1.22 2.43 ND 2.41 1.45 0.86 | 1.67 |
| GFSLNEYGIS | VIYADGLRSFYQDKVK | GELALSLDT | ND ND 1.76 ND ND ND | 1.76 |

Background: pairings of all heavy chain designs with three empty control strains gave a value in 1% of cases (median 2.08, 5th percentile 0.84). Values in that range, when seen in few replicates, are hard to tell from nonspecific mating. Of ten entries with the parent sequence, four were seen in most replicates (averages 0.34 to 2.37), three in one and three in none, so single entries are noisy. A sequence measured in both rounds can read differently, since the two assays cover different ranges. In the paper, a design with two or fewer of six values counts as a poor binder. Where one sequence has several entries in the source, the replicates are listed entry by entry, parted by semicolons.